Measurements from patent publication US20240293304A1, “SULFONATE-FUNCTIONALIZED ALKYL POLYGLUCOSIDES AS SULFATE-FREE SURFACTANTS FOR TOOTHPASTE AND MOUTHWASH” (Colonial Chemical, Inc., priority 2021, published 2024).

Test system: In vitro epidermal keratinocytes
Format: cell-based

With “sorbitan oleate decylglucoside crosspolymer [Poly Suga®Mulse D9]” the ET-50 was at least 256 min.
